Test system: Staphylococcus aureus
Conditions: 032
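Further: growth inhibition of the bacteria, determined by serial dilution following CLSI guidelines.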

Work on GENTAMICIN yielded an MIC of 0.5 µg/mL.
